Molecular target: T1, Flag-β-catenin, P35222
T1 chain: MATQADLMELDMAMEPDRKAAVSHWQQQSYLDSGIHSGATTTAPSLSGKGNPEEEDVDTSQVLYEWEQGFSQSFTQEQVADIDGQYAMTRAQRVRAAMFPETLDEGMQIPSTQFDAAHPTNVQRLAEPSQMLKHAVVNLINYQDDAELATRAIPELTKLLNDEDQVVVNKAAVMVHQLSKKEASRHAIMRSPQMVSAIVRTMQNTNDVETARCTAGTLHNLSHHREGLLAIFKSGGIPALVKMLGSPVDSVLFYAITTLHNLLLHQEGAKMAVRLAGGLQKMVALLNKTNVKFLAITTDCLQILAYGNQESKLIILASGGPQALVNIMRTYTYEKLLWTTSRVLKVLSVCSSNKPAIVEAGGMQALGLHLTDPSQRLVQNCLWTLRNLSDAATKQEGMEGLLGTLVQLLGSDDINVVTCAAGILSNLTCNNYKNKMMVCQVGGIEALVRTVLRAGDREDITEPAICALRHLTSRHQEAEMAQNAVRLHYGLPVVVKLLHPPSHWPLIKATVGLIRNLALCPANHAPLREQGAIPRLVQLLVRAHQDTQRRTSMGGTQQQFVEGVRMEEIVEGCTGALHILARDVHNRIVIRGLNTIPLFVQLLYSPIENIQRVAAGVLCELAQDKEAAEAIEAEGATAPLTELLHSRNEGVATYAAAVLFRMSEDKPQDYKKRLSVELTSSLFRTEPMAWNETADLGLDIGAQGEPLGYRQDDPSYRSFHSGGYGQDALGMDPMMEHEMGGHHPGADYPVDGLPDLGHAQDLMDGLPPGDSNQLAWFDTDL
Test: co-IP; HEK-293T cells co-transfected with the indicated plasmids; nuclear protein extracts incubated with anti-FLAG M2 or anti-c-Myc magnetic beads at 4 °C overnight, washed with TBS, eluted, western blot; in Fig. 6c with or without co-expressed FOXP3
Settings: remark: other sources report otherwise

- fold increase of the co-precipitate when FOXP3 was co-expressed (against no FOXP3): 1.45 fold
B1: Myc-TCF4, Q9NQB0 1-619 (natural protein)
chain: MPQLNGGGGDDLGANDELISFKDEGEQEEKSSENSSAERDLADVKSSLVNESETNQNSSSDSEAERRPPPRSESFRDKSRESLEEAAKRQDGGLFKGPPYPGYPFIMIPDLTSPYLPNGSLSPTARTLHFQSGSTHYSAYKTIEHQIAVQYLQMKWPLLDVQAGSLQSRQALKDARSPSPAHIVSNKVPVVQHPHHVHPLTPLITYSNEHFTPGNPPPHLPADVDPKTGIPRPPHPPDISPYYPLSPGTVGQIPHPLGWLVPQQGQPVYPITTGGFRHPYPTALTVNASMSRFPPHMVPPHHTLHTTGIPHPAIVTPTVKQESSQSDVGSLHSSKHQDSKKEEEKKKPHIKKPLNAFMLYMKEMRAKVVAECTLKESAAINQILGRRWHALSREEQAKYYELARKERQLHMQLYPGWSARDNYGKKKKRKRDKQPGETNEHSECFLNPCLSLPPITDLSAPKKCRARFGLDQQNNWCGPCRRKKKCVRYIQGEGSCLSPPSSDGSLLDSPPPSPNLLGSPPRDAKSQTEQTQPLSLSLKPDPLAHLSMMPPPPALLLAEATHKASALCPNGALDLPPAALQPAAPSSSIAQPSTSSLHSHSSLAGTQPQPLSLVTKSLE

Reference: paper PMC5514503
